Test results as given in patent US4018930A, “Substituted indolobenzazepines” (Endo Laboratories, Inc., priority 1975, dated 1977).

How the values were obtained:
[1] = system: mice; assay: Decreased Locomotor Activity (L.M.A.), primary rodent screen; format: in vivo; conditions: po, mouse; oral dose producing score of at least -1
[2] = system: mice; assay: Ptosis (Pto.), primary rodent screen; format: in vivo; conditions: po, mouse; passive ptosis

C=CCN1CC[C@@H]2[C@@H](C1)c1cccc3c1N2c1ccccc1CC3.Cl (racemic)
L.M.A. ED50 (decreased locomotor activity) [1]: 7 mg/kg
Pto. ED50 (ptosis) [2]: 11 mg/kg

C#CCN1CC[C@@H]2[C@@H](C1)c1cccc3c1N2c1ccccc1CC3 (racemic)
L.M.A. ED50 (decreased locomotor activity) [1]: 36 mg/kg
Pto. ED50 (ptosis) [2]: 36 mg/kg
